Assay results reported in PubChem BioAssay (NCI).
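Five compound concentrations were applied to cells in 96-well plates for 48 hours; endpoints were derived by simple linear interpolation of the resulting dose-response curve. The concentration for 50% growth inhibition is given as GI50. TGI marks complete inhibition of growth.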

Key:
Assay in all cases: NCI tumour cell line growth inhibition, 48 h
786-0 renal = tested on: 786-0 renal
EKVX NSCLC = tested on: EKVX NSCLC
MDA-MB-435 = tested on: MDA-MB-435
MDA-MB-231 breast = tested on: MDA-MB-231 breast
SNB-19 CNS = tested on: SNB-19 CNS
SR leukemia = tested on: SR leukemia
SNB-75 CNS = tested on: SNB-75 CNS
PC-3 prostate = tested on: PC-3 prostate
HT29 colon = tested on: HT29 colon
DU-145 prostate = tested on: DU-145 prostate
A549 NSCLC = tested on: A549 NSCLC
BT-549 breast = tested on: BT-549 breast
OVCAR-8 ovarian = tested on: OVCAR-8 ovarian
SN12C renal = tested on: SN12C renal
SF-295 CNS = tested on: SF-295 CNS
SK-OV-3 ovarian = tested on: SK-OV-3 ovarian
SW-620 colon = tested on: SW-620 colon
A498 renal = tested on: A498 renal
HOP-62 NSCLC = tested on: HOP-62 NSCLC
UACC-257 melanoma = tested on: UACC-257 melanoma
LOX IMVI melanoma = tested on: LOX IMVI melanoma
NCI-H322M lung = tested on: NCI-H322M lung
CAKI-1 renal = tested on: CAKI-1 renal
U251 CNS = tested on: U251 CNS
M14 melanoma = tested on: M14 melanoma
HCT-15 colon = tested on: HCT-15 colon
MOLT-4 leukemia = tested on: MOLT-4 leukemia
SF-539 CNS = tested on: SF-539 CNS
HS 578T breast = tested on: HS 578T breast
MCF7 breast = tested on: MCF7 breast
UACC-62 melanoma = tested on: UACC-62 melanoma
SF-268 CNS = tested on: SF-268 CNS
CCRF-CEM leukemia = tested on: CCRF-CEM leukemia
OVCAR-4 ovarian = tested on: OVCAR-4 ovarian
HCT-116 colon = tested on: HCT-116 colon
NCI-H522 lung = tested on: NCI-H522 lung
COLO 205 colon = tested on: COLO 205 colon
NCI-H226 lung = tested on: NCI-H226 lung
TK-10 renal = tested on: TK-10 renal
OVCAR-3 ovarian = tested on: OVCAR-3 ovarian
HL-60(TB) leukemia = tested on: HL-60(TB) leukemia
K-562 leukemia = tested on: K-562 leukemia
T-47D breast = tested on: T-47D breast
SK-MEL-28 melanoma = tested on: SK-MEL-28 melanoma
IGROV1 ovarian = tested on: IGROV1 ovarian
OVCAR-5 ovarian = tested on: OVCAR-5 ovarian
UO-31 renal = tested on: UO-31 renal
ACHN renal = tested on: ACHN renal
NCI/ADR-RES ovarian = tested on: NCI/ADR-RES ovarian
SK-MEL-2 melanoma = tested on: SK-MEL-2 melanoma
KM12 colon = tested on: KM12 colon
MDA-N = tested on: MDA-N
RPMI-8226 leukemia = tested on: RPMI-8226 leukemia
NCI-H460 lung = tested on: NCI-H460 lung
NCI-H23 lung = tested on: NCI-H23 lung
SK-MEL-5 melanoma = tested on: SK-MEL-5 melanoma

## COc1cc([N+](=O)[O-])c([N+](=O)[O-])cc1N
786-0 renal
  GI50: 52 µM
  TGI: > 100 µM
EKVX NSCLC
  GI50: > 100 µM
  TGI: > 100 µM
MDA-MB-435
  GI50: > 100 µM
  TGI: > 100 µM
MDA-MB-231 breast
  GI50: > 100 µM
  TGI: > 100 µM
SNB-19 CNS
  GI50: > 100 µM
  TGI: > 100 µM
SR leukemia
  GI50: 44 µM
  TGI: > 100 µM
SNB-75 CNS
  GI50: 76.2 µM
  TGI: > 100 µM
PC-3 prostate
  GI50: > 100 µM
  TGI: > 100 µM
HT29 colon
  GI50: 37.5 µM
  TGI: > 100 µM
DU-145 prostate
  GI50: > 100 µM
  TGI: > 100 µM
A549 NSCLC
  GI50: 66.5 µM
  TGI: > 100 µM
BT-549 breast
  GI50: > 100 µM
  TGI: > 100 µM
OVCAR-8 ovarian
  GI50: > 100 µM
  TGI: > 100 µM
SN12C renal
  GI50: > 100 µM
  TGI: > 100 µM
SF-295 CNS
  GI50: > 100 µM
  TGI: > 100 µM
SK-OV-3 ovarian
  GI50: > 100 µM
  TGI: > 100 µM
SW-620 colon
  GI50: > 100 µM
  TGI: > 100 µM
A498 renal
  GI50: > 100 µM
  TGI: > 100 µM
HOP-62 NSCLC
  GI50: > 100 µM
  TGI: > 100 µM
UACC-257 melanoma
  GI50: 98.3 µM
  TGI: > 100 µM
LOX IMVI melanoma
  GI50: 27.2 µM
  TGI: > 100 µM
NCI-H322M lung
  GI50: > 100 µM
  TGI: > 100 µM
CAKI-1 renal
  GI50: > 100 µM
  TGI: > 100 µM
U251 CNS
  GI50: > 100 µM
  TGI: > 100 µM
M14 melanoma
  GI50: > 100 µM
  TGI: > 100 µM
HCT-15 colon
  GI50: > 100 µM
  TGI: > 100 µM
MOLT-4 leukemia
  GI50: 26.2 µM
  TGI: > 100 µM
SF-539 CNS
  GI50: 85 µM
  TGI: > 100 µM
HS 578T breast
  GI50: > 100 µM
  TGI: > 100 µM
MCF7 breast
  GI50: 91 µM
  TGI: > 100 µM
UACC-62 melanoma
  GI50: > 100 µM
  TGI: > 100 µM
SF-268 CNS
  GI50: > 100 µM
  TGI: > 100 µM
CCRF-CEM leukemia
  GI50: 31.2 µM
  TGI: > 100 µM
OVCAR-4 ovarian
  GI50: > 100 µM
  TGI: > 100 µM
HCT-116 colon
  GI50: > 100 µM
  TGI: > 100 µM
NCI-H522 lung
  GI50: 55.7 µM
  TGI: > 100 µM
COLO 205 colon
  GI50: 69 µM
  TGI: > 100 µM
NCI-H226 lung
  GI50: > 100 µM
  TGI: > 100 µM
TK-10 renal
  GI50: > 100 µM
  TGI: > 100 µM
OVCAR-3 ovarian
  GI50: > 100 µM
  TGI: > 100 µM
HL-60(TB) leukemia
  GI50: 35.9 µM
  TGI: > 100 µM
K-562 leukemia
  GI50: 36 µM
  TGI: > 100 µM
T-47D breast
  GI50: 47.7 µM
  TGI: > 100 µM
SK-MEL-28 melanoma
  GI50: > 100 µM
  TGI: > 100 µM
IGROV1 ovarian
  GI50: > 100 µM
  TGI: > 100 µM
OVCAR-5 ovarian
  GI50: > 100 µM
  TGI: > 100 µM
UO-31 renal
  GI50: > 100 µM
  TGI: > 100 µM
ACHN renal
  GI50: > 100 µM
  TGI: > 100 µM
NCI/ADR-RES ovarian
  GI50: > 100 µM
  TGI: > 100 µM
SK-MEL-2 melanoma
  GI50: > 100 µM
  TGI: > 100 µM
KM12 colon
  GI50: > 100 µM
  TGI: > 100 µM
MDA-N
  GI50: 71.3 µM
  TGI: > 100 µM
RPMI-8226 leukemia
  GI50: > 100 µM
  TGI: > 100 µM
NCI-H460 lung
  GI50: 36.9 µM
  TGI: > 100 µM
NCI-H23 lung
  GI50: > 100 µM
  TGI: > 100 µM
SK-MEL-5 melanoma
  GI50: > 100 µM
  TGI: > 100 µM
